Laboratory results from patent publication US10793563B2, “GCN2 inhibitors and uses thereof” (Merck Patent GmbH, priority 2018, dated 2020).

The chains behind the UniProt entries cited, without tags or fusion partners.
UniProt Q9P2K8, whole entry: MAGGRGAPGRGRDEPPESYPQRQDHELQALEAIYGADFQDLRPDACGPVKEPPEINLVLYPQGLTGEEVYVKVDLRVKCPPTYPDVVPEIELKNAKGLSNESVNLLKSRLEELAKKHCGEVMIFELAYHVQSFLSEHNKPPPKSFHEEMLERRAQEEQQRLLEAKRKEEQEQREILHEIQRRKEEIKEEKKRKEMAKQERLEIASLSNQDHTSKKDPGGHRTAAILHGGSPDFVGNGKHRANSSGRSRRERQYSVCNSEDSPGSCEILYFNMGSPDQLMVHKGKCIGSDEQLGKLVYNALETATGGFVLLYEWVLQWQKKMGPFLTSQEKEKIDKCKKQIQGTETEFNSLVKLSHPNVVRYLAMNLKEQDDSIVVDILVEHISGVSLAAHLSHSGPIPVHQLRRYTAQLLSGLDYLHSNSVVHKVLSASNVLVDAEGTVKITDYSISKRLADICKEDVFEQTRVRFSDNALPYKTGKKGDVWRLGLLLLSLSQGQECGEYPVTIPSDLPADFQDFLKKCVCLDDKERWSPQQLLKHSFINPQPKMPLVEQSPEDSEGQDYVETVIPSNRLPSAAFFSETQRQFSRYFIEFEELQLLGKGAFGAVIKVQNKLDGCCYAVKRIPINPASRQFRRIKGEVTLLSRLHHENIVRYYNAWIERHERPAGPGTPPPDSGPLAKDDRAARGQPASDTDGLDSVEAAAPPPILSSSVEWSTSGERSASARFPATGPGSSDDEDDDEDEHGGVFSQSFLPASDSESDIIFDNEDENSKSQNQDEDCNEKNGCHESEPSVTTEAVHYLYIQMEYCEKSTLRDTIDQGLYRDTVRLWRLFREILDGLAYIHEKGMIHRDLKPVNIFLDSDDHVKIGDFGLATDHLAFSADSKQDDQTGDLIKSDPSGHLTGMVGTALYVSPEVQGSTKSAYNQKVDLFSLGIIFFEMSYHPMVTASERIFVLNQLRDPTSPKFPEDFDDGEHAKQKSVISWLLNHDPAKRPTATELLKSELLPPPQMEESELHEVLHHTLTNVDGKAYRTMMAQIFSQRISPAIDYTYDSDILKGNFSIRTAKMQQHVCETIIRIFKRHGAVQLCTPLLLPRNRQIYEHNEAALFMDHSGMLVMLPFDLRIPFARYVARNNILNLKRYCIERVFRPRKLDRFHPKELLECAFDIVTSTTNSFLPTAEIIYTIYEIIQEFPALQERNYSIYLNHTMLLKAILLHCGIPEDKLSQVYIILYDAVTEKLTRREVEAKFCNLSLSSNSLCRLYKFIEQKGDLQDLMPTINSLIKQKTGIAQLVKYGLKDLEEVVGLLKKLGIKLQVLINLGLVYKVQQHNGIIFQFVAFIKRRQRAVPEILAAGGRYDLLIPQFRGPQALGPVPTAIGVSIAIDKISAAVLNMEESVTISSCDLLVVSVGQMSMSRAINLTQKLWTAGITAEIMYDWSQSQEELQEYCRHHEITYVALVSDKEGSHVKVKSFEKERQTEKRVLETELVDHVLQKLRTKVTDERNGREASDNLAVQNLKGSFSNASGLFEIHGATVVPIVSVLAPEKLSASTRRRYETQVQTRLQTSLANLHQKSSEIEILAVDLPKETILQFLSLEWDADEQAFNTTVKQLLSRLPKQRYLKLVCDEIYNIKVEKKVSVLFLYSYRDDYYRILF

Tests used:
[1] = biological target: GCN2 kinase (Homo sapiens (Human), UniProt Q9P2K8); test: GCN2 Enzyme Inhibition Assay (Transcreener ADP2 fluorescence polarization); assay type: biochemical; details: 280 μM ATP, 200 μM (RS)7 peptide, 4 nM GCN2, 25° C.; for IC50: read-out: GCN2 (IC50); for Ki: read-out: GCN2 (Ki), Ki(app)
[2] = biological target: intracellular GCN2 (phosphorylation of the GCN2 substrate eIF2α) (Homo sapiens (Human), UniProt Q9P2K8); test: GCN2 Cellular Inhibition Assay (AlphaScreen SureFire P-eIF2α Ser51, borrelidin-treated U2OS cells); assay type: cell-based; details: read-out: GCN2 Biomarker (IC50), 10 μM borrelidin, 1 h, phosphorylated eIF2α Ser51
Procedure: Compounds can be screened for their ability to inhibit intracellular GCN2 using an AlphaScreen assay (Perkin Elmer) to detect phosphorylation of the GCN2 substrate eIF2α in borrelidin-treated cells. U2OS cells are plated at 5,000 cells per well in 384-well white polystyrene plates (Corning 3570) in McCoy's 5A media (GIBCO 26600-023) supplemented with 10% foetal bovine serum (SAFC 12103C), Penicillin/Streptomycin solution diluted 1:100 (Sigma P0781), and 2 mM L-glutamine (Sigma G7513), and allowed to adhere overnight at 37° C. in 5% CO2. Compounds are then added to the cell media from a final concentration of 40 μM in 4-fold serial dilutions. Borrelidin (FluoroChem M01440) is immediately added to the wells to a final concentration of 10 μM and the cells are incubated for 1 h at 37° C. in 5% CO2. After 1 h of treatment with borrelidin, the media is removed, and the cells are lysed with lysis buffer (TGR BioSceinces TGRLB) at ambient temperature.
An AlphaScreen SureFire P-eIF2α (Ser51) assay kit (Perkin Elmer TGREIF2S) was used to measure levels of eIF2α phosphorylated on Serine 51. Anti-phosphorylated eIF2α Ser51 antibody-linked acceptor beads (TGR BioScience 6760617) are added to the cell homogenate (diluted 1:250 into a mixture of activation (TGR BioScience TGRAB) and reaction buffer (TGR BioScience TGREIF2S) prepared immediately before use). The plate is then incubated for 2 h at ambient temperature in the dark. Anti-eIF2α antibody-linked donor beads (TGR BioScience 6760617) were then added (diluted 1:100 in dilution buffer (TGR BioScience TGRDB) prepared immediately before use). The plate is then incubated overnight at ambient temperature in the dark.
Plates are analyzed on an Alpha Technology-compatible PHERAstar FS plate reader (BMG Labtech Version 1.14) to quantify phosphorylated eIF2α Ser51 levels. The percentage inhibition of phosphorylated eIF2α is calculated by comparison to control wells stimulated with borrelidin alone.

[3] = tested on: primary human pan T-cells; test: Human IL-2 Assay for GCN2 Inhibition (IL-2 secretion from T cells in low amino acid condition); details: read-out: IL2/T-cell EC50; IL-2 secretion from human T cells stimulated with anti-CD3/CD28 in low amino acid condition; 96 hours; ELISA

Row | Compound | IC50 [1] | IC50 [2] | Ki [1] | EC50 [3]
1 | C[C@@H]1[C@H](CNS(C)(=O)=O)N(C2CC2)CCN1c1ccnc(-c2cnc3ccc(C(F)F)cn23)n1 | 100 to 1000 nM | 500 to 5000 nM | – | –
2 | O=C(O)CC1CCCN(c2ccnc(-c3cnc4ccc(Cl)cn34)n2)C1 (centres unmarked) | 10 to 100 nM | – | – | –
3 | O=C(c1cnn(CCO)c1)N1CCN(c2ccnc(-c3cnc4ccc(C(F)(F)F)cn34)n2)CC1c1cn[nH]c1 (centres unmarked) | 100 to 1000 nM | – | – | –
4 | C[C@H]1CN(c2ccnc(-c3cnc4ccc(C(F)F)cn34)n2)C[C@@H](CNS(C)(=O)=O)C1(F)F | – | 500 to 5000 nM | < 10 nM | –
5 | C[C@H]1[C@@H](CNS(C)(=O)=O)N(C2CC2)CCN1c1ccnc(-c2cnc3ccc(C(F)F)cn23)n1 | < 10 nM | < 500 nM | – | –
6 | Cc1[nH]ncc1C1CC(F)CN(c2ccnc(-c3cnc4cc(F)c(C5CC5)cn34)n2)C1 (centres unmarked) | 10 to 100 nM | – | – | –
7 | C[C@H]1C[C@H](c2cn[nH]c2)CN(c2nccc(-c3cnc4ccc(N5CC(F)(F)C5)cn34)n2)C1 | < 10 nM | < 500 nM | – | < 100 nM
8 | CC1CN(c2ccnc(-c3cnc4cc(F)c(Cl)cn34)n2)C(C)C(c2c[nH]cn2)N1 (centres unmarked) | – | 500 to 5000 nM | < 10 nM | –
9 | CC(C)(C)OC(=O)N1C2CCCC1CN(c1ccnc(-c3cnc4ccc(C(F)(F)F)cn34)n1)C2 | 100 to 1000 nM | – | – | –
10 | Cc1cc(C)n(CCC(=O)N2CCN(c3ccnc(-c4cnc5ccc(C(F)(F)F)cn45)n3)CC2c2cn[nH]c2)n1 (centres unmarked) | 100 to 1000 nM | > 5000 nM | – | –
11 | C[C@H]1C[C@H](c2cn[nH]c2)CN(c2nccc(-c3cnc4ccc(N5CCC5)cn34)n2)C1 | 10 to 100 nM | < 500 nM | – | –
12 | C[C@@H]1C[C@H](c2cn[nH]c2)CN(c2nccc(-c3cnc4ccc(N5CCC5)cn34)n2)C1 | < 10 nM | < 500 nM | – | –
13 | COCCn1cc(C(=O)N2CCN(c3ccnc(-c4cnc5ccc(C(F)(F)F)cn45)n3)CC2c2cn[nH]c2)cn1 (centres unmarked) | 10 to 100 nM | 500 to 5000 nM | – | –
14 | CC1C(CNS(C)(=O)=O)N(C2CC2)CCN1c1ccnc(-c2cnc3ccc(C(F)F)cn23)n1 (centres unmarked) | 10 to 100 nM | < 500 nM | – | –
15 | CC1CN(c2ccnc(-c3cnc4ccc(C(F)(F)F)cn34)n2)CC(c2cn[nH]c2)N1 (single isomer, unassigned) | – | < 500 nM | < 10 nM | –
16 | Fc1cc2ncc(-c3nccc(N4CCOC(c5cn[nH]c5)C4)n3)n2cc1Br (centres unmarked) | – | < 500 nM | < 10 nM | –
